The entries are a selection whose mix differs from that of the whole data set. Active and inactive are the calls of the source.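 How the source made its calls: active means percent inhibition above the cutoff of mean plus 3 SD of all tested compounds, set per screening campaign (cut at about 20% in these data); inactive means the rest.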

Amino acid sequences for entries named in this document (tags omitted). A change or cut given only in a name is not applied to a line headed by its entry.
UniProt Q9Y5X4: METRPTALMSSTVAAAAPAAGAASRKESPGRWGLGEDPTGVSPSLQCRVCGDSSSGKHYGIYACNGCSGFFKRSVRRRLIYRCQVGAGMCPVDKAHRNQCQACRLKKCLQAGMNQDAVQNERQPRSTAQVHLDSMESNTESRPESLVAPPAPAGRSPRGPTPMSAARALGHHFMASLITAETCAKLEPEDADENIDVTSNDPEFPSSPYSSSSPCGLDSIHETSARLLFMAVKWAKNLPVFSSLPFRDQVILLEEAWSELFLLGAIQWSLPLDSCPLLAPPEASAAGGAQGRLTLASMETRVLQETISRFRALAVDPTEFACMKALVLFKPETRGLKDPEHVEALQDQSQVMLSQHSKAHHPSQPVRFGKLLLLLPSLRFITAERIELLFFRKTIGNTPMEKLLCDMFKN

This assay has as its target Photoreceptor-specific nuclear receptor (Homo sapiens) (UniProt Q9Y5X4). Nature of the assay: inhibitors of NR2E3-RetCOR corepressor binding, primary screen, NR2E3 agonist project, biochemical, TR-FRET, GST-NR2E3, biotin-RetCOR (AID 2300).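 Further: 0% = DMSO wells and 100% = biotin wells as full block of FRET.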 The conditions noted are these: 1536-well, at 4.78 µM, active compounds read high. In outline:
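System: GST-tagged NR2E3 plus biotinylated RetCOR corepressor; Buffer or medium: pH 7.5 Tris-based buffer; Probe or stimulus: RetCOR corepressor, biotinylated, 7 nM; Doses: compound at 4.8 µM, single dose; Schedule: 5 h incubation at 4 °C; Technique: time-resolved FRET; Evaluation: percent inhibition of TR-FRET ratio; Replication: one well per compound, singlicate testing.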
In general terms: In TR-FRET formats the signal depends on donor and acceptor labels being close together.
With `O=P(Nc1nc2ccc(Cl)cc2s1)(c1ccccc1)c1ccccc1`, the inhibition of corepressor binding is inactive: 0.82%. Then `CC(=O)Nc1ccc([As](=O)(O)O)cc1`, with inactive: 0.66%; and `O=C(O)c1ccccc1[As](=O)(O)O`, with inactive: 1.23%; and `CN(C(=O)Cc1ccc(Cl)c(Cl)c1)[C@H]1CCCC[C@@H]1N1CCCC1`, with inactive: 3.07%. Take `Cc1ccc(NP(=O)(Oc2ccccc2F)Oc2ccccc2F)nc1`: the inhibition of corepressor binding was inactive: 3.39%. To `Cc1cc(SC(NC(=O)c2ccc(F)cc2)C(Cl)(Cl)Cl)ncn1` (centres undefined) belongs inactive: -0.72%; to `CCOP(=O)(Nc1ccccc1)OCC`, inactive: 0.14%. To `O=[N+]([O-])c1cc([N+](=O)[O-])c(CCN2CCOCC2)c([N+](=O)[O-])c1` belongs inactive: -1.4%; to `CCN(N=Nc1nonc1N)c1nonc1N`, inactive: -0.98%. Then `Cc1ccc(N/C(=N/P(=O)(N2CCOCC2)N2CCOCC2)N2CCOCC2)cc1`, with inactive: -0.19%; and `CN(C(=O)Cc1ccc(Cl)c(Cl)c1)[C@H]1CCCC[C@H]1N1CCCC1`, with inactive: 0.59%. `NC(=O)c1cc([N+](=O)[O-])cc([N+](=O)[O-])c1N`: the inhibition of corepressor binding is inactive: 1.48%. Then `CN1CCCC(OC(=O)C(c2ccccc2)c2ccccc2)C1` (centres undefined), with inactive: 1.21%. To `Clc1ccc(Cl)c(NC2=NCC(CBr)S2)c1` (centres undefined) belongs inactive: 2.05%; to `Cc1ccc(OP(=O)(Nc2nccs2)Oc2ccc(C)cc2)cc1`, inactive: 0.11%; to `COc1ccccc1OP(=O)(Nc1ccc(C)cn1)Oc1ccccc1OC`, inactive: 4.13%. To `O=C(NC(Sc1ccncn1)C(Cl)(Cl)Cl)c1ccccc1` (centres undefined) belongs inactive: -0.07%. Consider `Cc1c2non([O-])c-2c(C)[n+](=O)[n+]1[O-]`, for which the inhibition of corepressor binding is inactive: 0.83%. For the molecule `Oc1ccccc1CNc1ccccn1`, the inhibition of corepressor binding was inactive: 1.09%. To `Nc1cc(N)c2nonc2c1[N+](=O)[O-]` belongs inactive: 1.88%. To `CC(C)CC(=O)NC(Sc1ccc(Cl)cc1)C(Cl)(Cl)Cl` (centres undefined) belongs inactive: -0.21%; to `COc1ccc(C2=NCC(CBr)S2)cc1` (centres undefined), inactive: -0.57%; to `O=[N+]([O-])c1cc([N+](=O)[O-])c(CCNc2ccccc2)c([N+](=O)[O-])c1`, inactive: 3.49%.

For `CCc1nc2c(n1)c1c(non1O)c1c2no[n+]1[O-]`, the inhibition of corepressor binding is inactive: -0.67%. To `Cc1ccc(NP(=O)(Oc2ccccc2)Oc2ccccc2)nc1` belongs inactive: 5.39%; to `CC(=O)N1C2C3N(C(C)=O)C1C1N(C(C)=O)C(C(N1C(C)=O)N3C(C)=O)N2C(C)=O`, inactive: -1.25%. Then `O=[N+]([O-])c1cccc2n[nH]nc12`, with inactive: -2.7%; and `CCN(/C(=N/P(=O)(N1CCOCC1)N1CCOCC1)N1CCOCC1)c1ccc(OC)cc1`, with inactive: 3.89%. Then `C[N+]1=C2C=CC=CC=C2SC12C([N+](=O)[O-])=CC([N+](=O)[O-])=C[C-]2[N+](=O)[O-]` (centres undefined), with inactive: -0.83%; and `Nc1ccc([As](=O)(O)c2ccc(N)cc2)cc1`, with inactive: -1.85%; and `CC1CCN(C(=O)Oc2c(Cl)cc(Cl)c3cccnc23)CC1`, with inactive: -0.58%.

For the molecule `CN(C)C(=O)OCCc1n(C)cc[n+]1C`, the inhibition of corepressor binding is inactive: -1.05%. To `CC(C)=N/N=C(\N)N[N+](=O)[O-]` belongs inactive: 3.67%; to `O=C(Nc1cc([As](=O)(O)O)ccc1O)c1ccccc1`, inactive: -1.94%; to `O=[N+]([O-])c1ncn(CCn2ncnc2[N+](=O)[O-])n1`, inactive: 0.94%. Then `CC(C)(C)C(=O)NC(Sc1ccncn1)C(Cl)(Cl)Cl` (centres undefined), with inactive: -1.03%.

On to `O=[N+]([O-])c1cccc(NC2=NCC(CBr)S2)c1` (centres undefined), for which the inhibition of corepressor binding was inactive: -2.14%.

For the molecule `CN(C)C1(CNC(=O)c2ccc(Cl)c(S(N)(=O)=O)c2)CCCCC1`, the inhibition of corepressor binding was inactive: 1.56%. To `O=P(Nc1ccccn1)(c1ccc(Br)cc1)c1ccc(Br)cc1` belongs inactive: 3.49%.

With `C[C@H]1OP(=O)(Oc2ccccc2)[C@H](O)[C@H](O)[C@H]1N=[N+]=[N-]` (some centres undefined), the inhibition of corepressor binding was inactive: 0.05%. Then `O=P(Nc1nc2ccccc2s1)(c1ccccc1)c1ccccc1`, with inactive: -1.33%; and `O=[As](O)(c1ccccc1)c1ccc(O)cc1`, with inactive: -0.09%.

With `CC(=O)NC(SC(=S)N(C)C)C(Cl)(Cl)Cl` (centres undefined), the inhibition of corepressor binding is inactive: -0.77%. To `O=[N+]([O-])c1ncn(CCn2cnc([N+](=O)[O-])n2)n1` belongs inactive: 3.44%. As to `O=[N+]([O-])c1ccc(O)c(/C=N/Nc2ccc([N+](=O)[O-])cc2[N+](=O)[O-])c1`, the inhibition of corepressor binding is inactive: 4.05%. Then `O=C(OC1CN2CCC1CC2)c1cccc(Cl)c1` (centres undefined), with inactive: 3.16%; and `C(Cc1nn[nH]n1)Cc1nn[nH]n1`, with inactive: -0.29%. Consider `Nc1ccc([As](=O)(O)c2ccc([N+](=O)[O-])cc2)cc1`, for which the inhibition of corepressor binding was inactive: 2.21%. Consider `O=P(Nc1nccs1)(c1ccccc1)c1ccccc1`, for which the inhibition of corepressor binding was inactive: -2.49%.

The values are drawn from PubChem BioAssay AID2300 (The Scripps Research Institute Molecular Screening Center, 2010).
